Laboratory results published in patent US20240158446A1, “CYCLIC COMPOUND HAVING SELECTIVE INHIBITORY ACTION ON KRAS OVER HRAS AND NRAS” (CHUGAI SEIYAKU KABUSHIKI KAISHA, priority 2021, published 2024).

Key:
[1] = target: GDP-bound KRAS wild-type protein (Homo sapiens, UniProt P01116); test: Binding to KRAS by surface plasmon resonance (SPR), Single Cycle Kinetics; conditions: KRAS KD (M), 1:1 binding model
[2] = system: human lung cancer strain NCI-H441; conditions: read-out: NCI-H441 IC50; NCI-H441 cells, four days, CellTiter-Glo;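 further: cell proliferation inhibition after four days measured by CellTiter-Glo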
[3] = target: GDP-bound NRAS wild-type protein (Homo sapiens, UniProt P01111); test: Binding to NRAS by surface plasmon resonance (SPR), Single Cycle Kinetics; conditions: GDP-bound NRAS wild-type protein vs GDP-bound KRAS wild-type protein
[4] = target: GDP-bound HRAS wild-type protein (Homo sapiens, UniProt P01112); test: Binding to HRAS by surface plasmon resonance (SPR), Single Cycle Kinetics; conditions: GDP-bound HRAS wild-type protein vs GDP-bound KRAS wild-type protein

| SMILES | Kd [1] [M] | IC50 [2] [nM] | NRAS/KRAS (ratio of KD value for NRAS to KD value for KRAS) [3] | HRAS/KRAS (ratio of KD value for HRAS to KD value for KRAS) [4] |
| --- | --- | --- | --- | --- |
| CCO[C@@H]1C[C@H]2C(=O)NC3(CCC3)C(=O)N(C)[C@@H](C3CCCC3)C(=O)N(C)[C@H](C(=O)N(CC)CC)CC(=O)N(C)[C@@H](CC3CC3)C(=O)N[C@@H]([C@@H](C)CC)C(=O)N(C)CC(=O)N(C)[C@H]3C/C=C\CCN(C3=O)[C@@H](Cc3ccc(C(F)(F)F)cc3)C(=O)N(C)CC(=O)N[C@@H](CCc3cc(F)c(C(F)(F)F)c(F)c3)C(=O)N2C1 [PP1307] | 1.4e-10 |  |  |  |
| CCO[C@@H]1C[C@H]2C(=O)NC3(CCC3)C(=O)N(C)[C@@H](C3CCCC3)C(=O)N(C)[C@H](C(=O)N(C)C)CC(=O)N(C)[C@@H](CC(C)C)C(=O)N[C@@H]([C@@H](C)CC)C(=O)N(C)CC(=O)N(C)[C@H]3CC(C)=C(C)CN(C3=O)[C@@H](Cc3ccc(C(F)(F)F)cc3)C(=O)N(C)CC(=O)N[C@@H](CCc3cc(F)c(C(F)(F)F)c(F)c3)C(=O)N2C1 [PP1046] |  | 109 | C (A compound having a KD ratio of 0.1 or more and less than 3 is denoted as C) | C (A compound having a KD ratio of 0.1 or more and less than 3 is denoted as C) |
| CCC[C@H]1C(=O)N[C@@H]([C@@H](C)CC)C(=O)N(C)CC(=O)N(C)[C@H]2C/C=C\CCN(C2=O)[C@@H](Cc2ccc(C)cc2)C(=O)N(C)CC(=O)N[C@@H](CCc2cc(F)c(C(F)(F)F)c(F)c2)C(=O)N2CC3(CC3)C[C@H]2C(=O)NC2(CC(C)(C)C2)C(=O)N(C)[C@@H](CC(C)C)C(=O)N(C)[C@H](C(=O)N(C)C)CC(=O)N1C [PP3004] |  | 19.2 | A (a compound having 10 or more and less than 20 is denoted as A) | A (a compound having 10 or more and less than 20 is denoted as A) |
| CC[C@H](C)[C@@H]1NC(=O)[C@H](COC)N(C)C(=O)C[C@@H](C(=O)N(C)CC)N(C)C(=O)[C@H](C2CCCC2)N(C)C(=O)C2(CC(C)(C)C2)NC(=O)[C@@H]2C[C@H](C)CN2C(=O)[C@H](CCc2ccc(C(F)(F)F)c(OC)c2)NC(=O)CN(C)C(=O)[C@H](Cc2ccc(C)cc2)N2CC/C=C\C[C@@H](C2=O)N(C)C(=O)CN(C)C1=O [PP2504] |  | 12.9 |  |  |
